{
  "source": "patent US7803786B2",
  "about": "“Pharmaceutical co-crystal compositions and related methods of use” (Transform Pharmaceuticals, Inc., priority 2004, dated 2010)",
  "details": "multiple experiments including dry grinding and wet grinding with several different solvents",
  "data": [
    {"substance": "Piracetam:Gentisic acid Co-crystal", "values": [
      {"measurement": "polymorphs of the co-crystal observed", "result": "only one polymorph"}
    ]}
  ]
}
